Where only a bound is given, the exact number is not on record here.

In one experiment the test system is THP1-Dual cells (ISG54 promoter Lucia luciferase reporter). As to the kind of experiment: THP-1 Dual Lucia Reporter Gene Assay. The class given is cell-based, human. Particulars: Homo sapiens, THP1-Dual, 20 h, Lucia luciferase signal induction, 20 hours at 37° C., read-out: Cellular THP 1 EC50. The method, then: THP1-Dual™ cells (InvivoGen #thpd-nfis) were derived from the human THP-1 monocyte cell line by stable integration of the Lucia luciferase gene, a secreted luciferase reporter gene, under the control of an ISG54 (interferon-stimulated gene) minimal promoter in conjunction with five interferon (IFN)-stimulated response elements. […] The cell plates were dosed with 62.5 nL of the testing compounds, and then incubated at 37° C. for 20 hours. At the end of the incubation, 15 μL/well of the QUANTI-Luc™ (InvivoGen #rep-q1c1) were added, and luminescence was measured immediately using the LeadSeeker.
Compound concentration versus percent signal induction curves were fitted to generate EC50 values.
In the case of `Nc1nc2c(ncn2[C@@H]2O[C@@H]3COP(=O)(O)O[C@H]4C[C@H](Oc5cnccn5)C[C@@H]4COP(=O)(O)O[C@@H]2[C@@H]3O)c(=O)[nH]1` [Compound I-15, 2-amino-9-[(5R,7R,8R,12aR,14R,15aS,16R)-2,10,16-trihydroxy-2,10-dioxido-14-(pyrazin-2-yloxy)decahydro-5,8-methanocyclopenta[1][1,3,6,9,11,2,10]pentaoxadiphosphacyclotetradecin-7-yl]-1,9-dihydro-6H-purin-6-one], the EC50 was greater than 25 µM.

On to `Nc1cc(N[C@@H]2C[C@@H]3COP(=O)(O)O[C@@H]4[C@H](O)[C@@H](COP(=O)(O)O[C@H]3C2)O[C@H]4n2cnc3c(=O)[nH]c(N)nc32)ncn1` [Compound I-14, 2-amino-9-{(5R,7R,8R,12aR,14R,15aS,16R)-14-[(6-aminopyrimidin-4-yl)amino]-2,10,16-trihydroxy-2,10-dioxidodecahydro-5,8-methanocyclopenta[1][1,3,6,9,11,2,10]pentaoxadiphosphacyclotetradecin-7-yl}-1,9-dihydro-6H-purin-6-one], for which the 50% effective concentration (EC50) is greater than 25 µM. Consider `Nc1nc2c(ncn2[C@@H]2O[C@@H]3COP(=O)(O)O[C@@H]4[C@@H](COP(=O)(O)O[C@@H]2[C@@H]3O)C[C@@H](Nc2ncncc2F)[C@@H]4O)c(=O)[nH]1` [Compound I-8, 2-amino-9-{(5R,7R,8R,12aR,14R,15S,15aR,16R)-14-[(5-fluoropyrimidin-4-yl)amino]-2,10,15,16-tetrahydroxy-2,10-dioxidodecahydro-5,8-methanocyclopenta[1][1,3,6,9,11,2,10]pentaoxadiphosphacyclotetradecin-7-yl}-1,9-dihydro-6H-purin-6-one], for which the concentration giving a half-maximal response (EC50) is greater than 25 µM.

The experiment is the same for the next values; noted with them: Lucia luciferase signal induction, 20 hours at 37° C., read-out: Cellular THP 1 EC50.
`Nc1nc2c(ncn2[C@@H]2O[C@@H]3COP(=O)(S)O[C@H]4C[C@H](Oc5ccncn5)C[C@@H]4COP(=O)(S)O[C@@H]2[C@@H]3O)c(=O)[nH]1` (single isomer, unassigned) [Compound I-5b]: the EC50 lay within 1 to 10 µM. For `Nc1nc2c(ncn2[C@@H]2O[C@@H]3COP(=O)(S)O[C@H]4C[C@H](Nc5cc(=O)[nH]cn5)C[C@@H]4COP(=O)(S)O[C@@H]2[C@@H]3O)c(=O)[nH]1` (single isomer, unassigned) [Compound I-41a], the EC50 is greater than 25 µM. For `Nc1nc2c(ncn2[C@@H]2O[C@@H]3COP(=O)(S)O[C@H]4C[C@H](Oc5ccncn5)C[C@@H]4COP(=O)(S)O[C@@H]2C3)c(=O)[nH]1` (single isomer, unassigned) [I-lc], the EC50 was greater than 25 µM. As for `Nc1nc2c(ncn2[C@@H]2O[C@@H]3COP(=O)(S)O[C@H]4C[C@H](Nc5ccncn5)C[C@@H]4COP(=O)(S)O[C@@H]2[C@@H]3O)c(=O)[nH]1` (single isomer, unassigned) [Compound I-2a], the EC50 fell in the range of 1 to 10 µM. As to `Nc1nc2c(ncn2[C@@H]2O[C@@H]3COP(=O)(S)O[C@H]4C[C@H](Nc5ncncn5)C[C@@H]4COP(=O)(S)O[C@@H]2[C@@H]3O)c(=O)[nH]1` (single isomer, unassigned) [Compound I-44a], the concentration for a half-maximal effect (EC50) was in the range of 10 to 25 µM. Turning to `Nc1nc2c(ncn2[C@@H]2O[C@@H]3COP(=O)(S)O[C@H]4C[C@H](Nc5ccncn5)C[C@@H]4COP(=O)(S)O[C@@H]2[C@@H]3O)c(=O)[nH]1` (single isomer, unassigned) [Compound I-2b], the EC50 fell in the range of 10 to 25 µM. Regarding `O=c1[nH]cnc2c1c(F)cn2[C@@H]1O[C@@H]2COP(=O)(S)O[C@H]3C[C@H](Oc4ccncn4)C[C@@H]3COP(=O)(S)O[C@@H]1[C@@H]2O` (single isomer, unassigned) [Compound I-3a], the EC50 is greater than 25 µM.

With `Nc1nc2c(nnn2[C@@H]2O[C@@H]3COP(=O)(S)O[C@H]4C[C@H](Oc5ccncn5)C[C@@H]4COP(=O)(S)O[C@@H]2[C@@H]3O)c(=O)[nH]1` (single isomer, unassigned) [Compound I-30d], the EC50 is greater than 25 µM. In the case of `Nc1nc2c(ccn2[C@@H]2O[C@@H]3COP(=O)(S)O[C@H]4C[C@H](Oc5ccncn5)C[C@@H]4COP(=O)(S)O[C@@H]2[C@@H]3O)c(=O)[nH]1` (single isomer, unassigned) [Compound I-31a], the EC50 was greater than 25 µM.

These data come from patent US11542293B2, “Sting modulator compounds, and methods of making and using” (Takeda Pharmaceutical Company Limited, priority 2017, dated 2023).
